Test results reported in publication PMC9134086, “Inhibition of Dipeptidyl Peptidase-4 by Flavonoids: Structure–Activity Relationship, Kinetics and Interaction Mechanism” (Frontiers in Nutrition, 2022).

Amino acid sequences for entries named in this document (tags omitted).
UniProt P27487, whole entry: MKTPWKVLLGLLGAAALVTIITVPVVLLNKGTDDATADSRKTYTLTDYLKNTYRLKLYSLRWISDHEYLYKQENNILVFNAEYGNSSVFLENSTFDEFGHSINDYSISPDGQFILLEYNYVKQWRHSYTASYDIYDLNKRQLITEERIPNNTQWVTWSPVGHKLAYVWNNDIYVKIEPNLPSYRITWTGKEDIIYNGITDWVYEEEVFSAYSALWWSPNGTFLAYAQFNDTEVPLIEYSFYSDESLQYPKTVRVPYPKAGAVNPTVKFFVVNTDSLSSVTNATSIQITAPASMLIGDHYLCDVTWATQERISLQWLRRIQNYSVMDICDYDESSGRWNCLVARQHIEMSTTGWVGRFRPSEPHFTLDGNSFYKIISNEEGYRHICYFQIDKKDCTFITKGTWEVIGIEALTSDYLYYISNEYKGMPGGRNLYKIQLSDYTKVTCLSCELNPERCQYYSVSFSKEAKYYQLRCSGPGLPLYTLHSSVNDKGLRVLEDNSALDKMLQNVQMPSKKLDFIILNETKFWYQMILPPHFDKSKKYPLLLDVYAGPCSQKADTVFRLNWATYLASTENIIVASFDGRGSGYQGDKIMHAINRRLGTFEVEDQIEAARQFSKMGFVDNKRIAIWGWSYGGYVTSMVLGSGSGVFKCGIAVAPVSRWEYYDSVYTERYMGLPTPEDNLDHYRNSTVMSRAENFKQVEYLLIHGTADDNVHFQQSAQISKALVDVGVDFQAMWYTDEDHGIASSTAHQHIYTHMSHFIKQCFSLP

Experiments:
[1] = biological target: T1, DPP-4 (human recombinant) (Homo sapiens, UniProt P27487); assay: In vitro assay for DPP-4 inhibitory activity (fluorescence, Gly-Pro-AMC); assay type: biochemical; conditions: DPP-4 inhibition, fluorescence method;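 further: fluorescence of released AMC (excitation 360 nm, emission 460 nm) followed kinetically over 30 min at 37 °C in Tris-HCl pH 8.0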
T1 construct: purchased Sigma Aldrich D3446

[2] = biological target: T1, DPP-4 (human recombinant); assay: Inhibition kinetic analysis (V vs [DPP-4], Lineweaver-Burk, Dixon and Cornish-Bowden plots); assay type: biochemical; conditions: Dixon equation; read-out: Kic (competitive inhibition constant)

## O=c1c(O[C@@H]2O[C@H](CO)[C@H](O)[C@H](O)[C@H]2O)c(-c2ccc(O)c(O)c2)oc2cc(O)cc(O)c12 [E4, Hyperoside]
[1]
  IC50: 139 µM and < 200 µM
[2]
  Ki: 90.3 ± 1 µM

Where “and” joins values, the source holds several entries; their conditions need not be identical. Equal entries are not always repeated.
